For the test, the target named is MAb AP33 (broadly neutralizing mouse monoclonal antibody) (mouse). In words: SPR. For orientation: SPR reads the build-up and loss of mass on a sensor chip optically.

Chains of the proteins cited; added tags and fusions are not shown. A line that says so, or that is headed by a name, gives the form on record, which may keep a tag or linker.
MAb AP33 (broadly neutralizing mouse monoclonal antibody) (mouse), light, as listed by the source, chain 2 of 2: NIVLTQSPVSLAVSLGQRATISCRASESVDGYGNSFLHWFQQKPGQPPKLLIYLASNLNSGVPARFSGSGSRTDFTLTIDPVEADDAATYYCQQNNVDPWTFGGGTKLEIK

In general, Kd refers to a measure of binding affinity in units of concentration. Lower therefore signals a tighter complex.

“C-epitope I (cyclic peptide containing HCV E2 residues 412 to 422)”: the dissociation constant (Kd) came out at 71.1 nM. This counts as double-digit nanomolar.
For “L-epitope I (linear variant of C-epitope I, cysteines methylated) (peptide)”, the Kd is 0.535 nM.

These data come from paper PMC4794675, “Generation and Characterization of Monoclonal Antibodies against a Cyclic Variant of Hepatitis C Virus E2 Epitope 412-422” (Journal of Virology, 2016).
